Measured values reported in article PMC8121067, “The formin inhibitor SMIFH2 inhibits members of the myosin superfamily” (Journal of Cell Science, 2021).
“And” between values parts separate entries of the source, which are not always exact repeats. Equal values may be shown once.

Molecular target: MLCK (Homo sapiens, UniProt Q15746)
Experiment: myosin light chain kinase phosphorylation of non-muscle myosin 2A (HPLC-mass spectrometry)
Type: biochemical

Question: With O=C1NC(=S)N(c2cccc(Br)c2)C(=O)C1=Cc1ccco1 [SMIFH2] as the compound, how does the “% phosphorylated” value read?
Answer: Its value is 55.4% and 70.4% and 81.2%.
